According to US11000516B2, “Dosing regimens of celgosivir for the prevention of dengue” (priority 2015, dated 2021):

Tests used:
[1] = test system: clinical DENV strains from CELADEN trial patients (8 DENV1, 8 DENV2); assay: 16 clinical DENV strains from CELADEN patients in HuH-7 cells, sensitivity versus control strains; assay type: cell-based
Description: (A) Total 16 clinical DENV strains from CELADEN trial (8 from either DENV1 or DENV2 infected patients) were used for infection in HuH-7 cells in the absence or presence of celgosivir at the concentration of 3 μM. EDEN1, EDEN2 and S221 were used as control virus strains. The MOI of each strain was indicated in supplementary FIG. 2. After 48 hours pi, virus titer in the supernatants was determined by standard plaque assay using BHK-21 cells. The percentages of virus titer were calculated based on virus infection control of each strain. Error bars indicate standard deviations from duplicate experiments. (B and C) Mice were inoculated i.v. with DENV2 strains, #031 (2×10^7 pfu), #013 (1×10^7 pfu) or #036 (2×10^7 pfu). […] Average viral copy numbers on day 1-2 were measured using mixed serum of each group. Viral copy number on day 3 was measured individually and the graphs show the average results with standard deviations. […] Viral copy number on day 3-6 was measured individually and shown in the graphs as the average results with standard deviations. […]
Total 16 clinical DENV virus were recovered from serum of CELADEN trial patients with 8 of either DENV1 or DENV2 infection. […] After 48 hours post-infection, virus titer in the supernatants was determined by standard plaque assay using BHK-21 cells. […]

EDEN2 = assay: Lethal ADE infection model in AG129 mice (4G2 Ab pre-injection); assay type: in vivo; conditions: EDEN2, 50 mg/kg BID orally from time of infection
Description: (§1) AG129 mice were inoculated i.v. with EDEN1 (7×10^7 pfu), EDEN2 (1×10^8 pfu) or S221 (2×10^4 pfu) for non-lethal infection. For the ADE infection (lethal), mice were pre-injected i.p. with 50 μg (for EDEN1 and EDEN2) or 10 μg (for S221) 4G2 Ab one day prior to infection. (A) Mouse survival rate was monitored by day 10 pi. (B) Blood samples were collected on days 1-8 pi and mixed serum from each group were subjected to real-time RT-PCR to obtain the average viral genome copy numbers. (C) Serum levels of TNFα and IL-6 were measured by ELISA assay. The numbers of mice per group are 6 (EDEN1) or 5 (EDEN2 and S221).
(§2) AG129 mice were pre-injected i.p. with 50 μg (for EDEN1 and EDEN2) or 10 μg (for S221) 4G2 Ab followed by next day inoculation i.v. with EDEN1 (7×10^7 pfu), EDEN2 (1×10^8 pfu) or S221 (2×10^4 pfu). […] (A) Mouse survival rate was monitored by day 10 pi. (B) Blood samples were collected on day 1-4 pi and mixed serum from each group were subjected to real-time RT PCR to obtain the average viral genome copy numbers (left panels). […] A P value less than 0.05 was considered significant (*P<0.05). The number of mice per group is 5.
(§3) AG129 mice were pre-injected i.p. with 4G2 Ab followed by next day inoculation i.v. with EDEN1, EDEN2 or S221 as described above. […] (A) Mouse survival rate was monitored by day 10 pi. […]

EDEN1 = assay: as above; assay type: in vivo; conditions: EDEN1, 50 mg/kg BID orally from time of infection
Description: as §1, §2, §3

CCCC(=O)O[C@H]1CN2CC[C@H](O)[C@@H]2[C@@H](O)[C@@H]1O [celgosivir]
sensitivity to celgosivir relative to control strains ([1]; all other 15 CELADEN strains, HuH-7, celgosivir 3 mM): better sensitivity than EDEN1 or S221 | sensitivity to celgosivir relative to control strains ([1]; strain DENV1 #025, HuH-7, celgosivir 3 mM): less sensitive to celgosivir than EDEN1 | protection from lethal infection (survival) (EDEN2): completely protected mice from lethal infection | protection from lethal infection (survival) (EDEN1): completely protected mice from lethal infection
